In BindingDB's records for doi:10.1007/s00210-003-0860-y (UniversitÄT WÜRzburg, 2004) one finds Ki data, which are given here for one compound.

Chains of the proteins cited; added tags and fusions are not shown.
UniProt P08588, whole entry: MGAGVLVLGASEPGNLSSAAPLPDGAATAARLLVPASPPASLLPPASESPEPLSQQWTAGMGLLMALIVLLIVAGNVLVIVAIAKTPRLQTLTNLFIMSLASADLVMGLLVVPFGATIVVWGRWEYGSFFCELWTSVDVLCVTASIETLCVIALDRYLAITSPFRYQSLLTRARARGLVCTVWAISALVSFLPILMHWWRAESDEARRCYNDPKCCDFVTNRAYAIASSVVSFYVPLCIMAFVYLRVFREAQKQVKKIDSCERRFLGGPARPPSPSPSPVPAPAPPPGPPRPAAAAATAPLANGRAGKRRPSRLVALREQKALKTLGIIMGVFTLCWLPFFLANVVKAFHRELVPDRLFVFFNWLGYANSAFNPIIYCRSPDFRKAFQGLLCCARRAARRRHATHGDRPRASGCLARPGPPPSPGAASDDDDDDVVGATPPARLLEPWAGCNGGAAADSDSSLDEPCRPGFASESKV

The test has as its target Beta-1 adrenergic receptor (Homo sapiens, UniProt P08588).

A word on the Ki: it is the equilibrium dissociation constant of an inhibitor or competing ligand from its target. As to `CNCC(O)c1ccc(O)c(O)c1` (stereo unspecified) [EPINEPHRINE], the Ki worked out at 3.97 µM.
